Chains of the proteins cited; added tags and fusions are not shown.
UniProt Q13547, whole entry: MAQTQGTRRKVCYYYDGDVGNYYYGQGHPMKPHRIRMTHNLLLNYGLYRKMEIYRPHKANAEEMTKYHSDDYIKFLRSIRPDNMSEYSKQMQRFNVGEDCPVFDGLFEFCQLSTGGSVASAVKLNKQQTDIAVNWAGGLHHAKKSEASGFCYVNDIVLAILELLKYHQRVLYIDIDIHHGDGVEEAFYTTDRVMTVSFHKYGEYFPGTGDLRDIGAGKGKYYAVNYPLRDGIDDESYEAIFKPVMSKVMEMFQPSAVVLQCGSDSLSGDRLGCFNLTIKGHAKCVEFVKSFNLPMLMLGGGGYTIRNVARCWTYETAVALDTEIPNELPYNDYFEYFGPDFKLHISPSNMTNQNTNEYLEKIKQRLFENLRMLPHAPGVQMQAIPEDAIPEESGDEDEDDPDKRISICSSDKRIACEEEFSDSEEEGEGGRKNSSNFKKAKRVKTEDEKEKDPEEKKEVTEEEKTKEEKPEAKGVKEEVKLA

In patent publication US8648092B2, “Imidazo[1,2-a]pyridine derivatives: preparation and pharmaceutical applications” (MEI Pharma, priority 2005, dated 2014):

molecular target: HDAC1 enzyme (recombinant GST-HDAC1) (Homo sapiens (Human), UniProt Q13547); assay: In vitro HDAC assay for determination of IC50 values (BIOMOL fluorescent-based HDAC activity assay); format: biochemical; conditions: Flur de lys substrate, 2 h room temperature, read-out: IC50 (HDAC 1)
Method: Biological Testing and Enzyme Assays Recombinant GST-HDAC1 Protein Expression and Purification
Human cDNA library was prepared using cultured SW620 cells. Amplification of human HDAC1 coding region from this cDNA library was cloned separately into the baculovirus expression pDEST20 vector (GATEWAY Cloning Technology, Invitrogen Pte Ltd). The pDEST20-HDAC1 construct was confirmed by DNA sequencing. Recombinant baculovirus was prepared using the Bac-To-Bac method following the manufacturer's instruction (Invitrogen Pte Ltd).
Expression of GST-HDAC1 was done by infecting SF9 cells (Invitrogen Pte Ltd) with pDEST20-HDAC1 baculovirus at MOI=1 for 48 h. Soluble cell lysate was incubated with pre-equilibrated Glutathione Sepharose 4B beads (Amersham) at 4° C. for 2 h. The beads were washed with PBS buffer for 3 times. The GST-HDAC1 protein was eluted by elution buffer containing 50 mM Tris, pH8.0, 150 mM NaCl, 1% Triton X-100 and 10 mM or 20 mM reduced Glutathione. The purified GST-HDAC1 protein was dialyzed with HDAC storage buffer containing 10 mM Tris, pH7.5, 100 mM NaCl and 3 mM MgCl2. 20% Glycerol was added to purified GST-HDAC1 protein before storage at −80° C.
In Vitro HDAC Assay for Determination of IC50 Values
The assay has been carried out in 96 well format and the BIOMOL fluorescent-based HDAC activity assay has been applied. […] Flur de lys Developer was added and the reaction was incubated for 10 min. Briefly, deacetylation of the substrate sensitizes it to the developer, which then generates a fluorophore. The fluorophore is excited with 360 nm light and the emitted light (460 nm) is detected on a fluorometric plate reader (Tecan Ultra Microplate detection system, Tecan Group Ltd.).
The analytical software, Prism 4.0 (GraphPad Software Inc) has been used to generate IC50 from a series of data.

IC50	Structure (SMILES)
260 nM	CCC(C)CN(CC)Cc1c(C(C)(C)C)nc2cc(/C=C/C(=O)NO)ccn12 (stereo not drawn) [Compound 88, 3-(2-tert-Butyl-3-{[ethyl-(2-methyl-butyl)-amino]-methyl}-imidazo[1,2-a]pyridin-7-yl)-N-hydroxy-acrylamide]
20 nM	CCN(CCC(C)C)Cc1c(C)nc2cc(/C=C/C(=O)NO)ccn12 [Compound 124, 3-(3-{[Ethyl-(3-methyl-butyl)-amino]-methyl}-2-methyl-imidazo[1,2a]pyridin-7-yl)-N-hydroxy-acrylamide]
20 nM	CCN(CCC(C)C)Cc1c(CC(C)C)nc2cc(/C=C/C(=O)NO)ccn12 [Compound 135, 3-(3-{[Ethyl-(3-methyl-butyl)-amino]-methyl}-2-isobutyl-imidazo[1,2-a]pyridin-7-yl)-N-hydroxy-acrylamide]
